Values quoted from earlier work, collected in patent US20250221927A1, “[…] PREPARATION AND USE THEREOF” (YICHANG HUMANWELL PHARMACEUTICAL CO., LTD., priority 2022, published 2025).

Test system: 5-HT

## CN[C@]1(c2ccccc2Cl)CCCCC1=O.Cl [Esketamine, (S)-2-(2-chlorophenyl)-2-(methylamino)cyclohexanone hydrochloride]
  inhibitory effect on 5-HT, as share of L-ketamine: 50%
